Experimental data from US20120308548A1 (NOVA SOUTHEASTERN UNIVERSITY, priority 2010, published 2012).

Tests used:
[1] = Experimental: Typically the overall reaction of α-ketobutyrate formation was performed in a total volume of 24 μl. The reaction contained 4 μl of reaction buffer [150 mM Tris-HCl (pH 8.0)], 4 μl of 1 mM pyridoxal phosphate (PLP), 3 μl of H2O, 6 μl of storage buffer, and 4 μl of diluted protein (0.4 μg), gently mixed and incubated at 37° C. for 5 minutes. The reaction was started by adding 1.93×10^5 cpm of 1-^14C-L-methionine (8814 cpm/nmol) and the contents were incubated at 37° C. for 15 minutes. The reaction was stopped by boiling for a minute, cooled on ice for 2 minutes and centrifuged at 3575 g for 7 minutes. A 2 μl aliquot was then chromatographed on a silica gel plate using 25% 20 mM phosphate buffer (pH 7.0) and 75% acetonitrile. Following chromatography, the TLC plates were dried, and exposed to x-ray film for 36-48 hours (Eastman-Kodak Co). The respective spots of substrate and products were cut out and radioactivity determined by liquid scintillation.
The activity was measured using different amounts of protein ranging from 0.1 to 1 μg and the reaction was performed for 5-30 minutes.
Reaction at each protein concentration was performed for 15 minutes at pH 8.0 according to the standard assay procedures described. Effect of time was tested using 0.4 μg of protein. […] Reaction at each temperature was performed for 15 minutes at pH 8.0 with 0.4 μg of protein according to the standard assay procedures described. […] Reactions were performed for 15 minutes at 37° C., using reaction buffers of various pHs that contained ingredients used in standard assays described. [The following buffers were used for various pHs: citrate reaction buffer (pH 4.0, 5.0, and 6.0); phosphate buffer (pH 6.0 and 7.0); Tris-Hcl (pH 8.0 and 9.0), and glycine (pH 9.0, 10.0, and 11.0)].

BHK-21 cells = test system: BHK-21 cells
Experimental: (§1) The effect of MEGL on cell viability was determined using 3-[4,5-dimethylthiazol-2-yl]-2,5-diphenyl-tetrazolium bromide (MTT, Sigma-Aldrich). For MTT assay, cells were suspended at a concentration of ˜4×10^4 cells (180 μl/well). 20 μl of MTT solution (5 mg/ml) was added for each well and incubate at 37° C. and 5% CO2 for about 2-5 hours for purple color development. Formazan precipitates were dissolved in DMSO for 30 minutes at 37° C., and the absorbance was measured at 570 nm.
(§2) Viability of cells transfected with MEGL construct. Three different cell lines (Hela, BHK-21, and HEK-AD293T) were plated in 96-well plates and transfected with either vector expressing green fluorescent protein, GFP (pEGFP-C3), or MEGL and GFP (pEGFP-C3-MEGL). After 18 hours of transfection, cells were treated with MTT and viability was determined by measuring the MTT absorbance at λ570 nm. Control absorbance was arbitrarily determined as 100% viability.

HEK-AD293T cells = test system: HEK-AD293T cells
Experimental: as §1, §2

HeLa cells = settings: 18 hour MEGL expression, GFP control = 100% viability
Experimental: as §1, §2

## methionine gamma lyase-2-aminobutyrate deaminase [MEGL-2ABD]
[1]
  Vmax: 0.67 mmol/min/mg
[1]; overall reaction of α-ketobutyrate formation
  Vmax: 0.00067 mmol/min/mg
[1]; pH <6.0
  enzyme activity at pH below 6.0: very low
[1]; read-out: Km for methionine, overall reaction of α-ketobutyrate formation, purified enzyme, 37° C., pH 8.0
  Km: 310 µM
BHK-21 cells
  decrease in cell viability, MTT: 4.6 (+/−1.6) %
HEK-AD293T cells
  decrease in cell viability, MTT: 2.7 (+/−2.7) %
HeLa cells
  decrease in cell viability (cell death), MTT: 32 (+/−2.2) %

Where two headings read alike, the source gives them in different places.
